{"source": "patent US6270957A", "about": "“Non-Imuunosuppressive cyclosporins and their use in the prevention and treatment of HIV infection” (Wisconsin Alumni Research Foundation, priority 1999, dated 2001)", "origin": "cited, not measured here", "conditions": "in vivo; cited from earlier work", "data": [{"smiles": "CC(C)CN(C[C@@H](O)[C@H](Cc1ccccc1)NC(=O)O[C@H]1CCOC1)S(=O)(=O)c1ccc(N)cc1", "note": "[VS-478]", "values": [{"measurement": "bioavailability", "result": "excellent bioavailability"}]}]}
